The target in experiment [1] is N-terminally GLuc-tagged AT1 angiotensin receptor (GLuc‒AT1R), rat (rat) (UniProt P25095). As to the kind of experiment: FRET or BRET; kinetic receptor‒ligand BRET in real time on live HEK 293T cells with GLuc‒AT1R and DN-Dyn; 1 μM TAMRA‒AngII; dissociation after 15 min and washout with 10 μM candesartan against rebinding; one phase (one site) fits.
Experiment [2] addresses AT1 angiotensin receptor (AT1R), untagged, rat (rat) (UniProt P25095). As to the kind of experiment: FRET or BRET; PM‒ligand (bystander) BRET at equilibrium with NanoLuc‒PM: live HEK 293T cells with untagged AT1R, NanoLuc‒PM and DN-Dyn; 1 μM TAMRA‒AngII, 2 h at room temperature; specific signal is the part prevented by candesartan.
Experiment [3] has the same target. As to the kind of experiment: FRET or BRET; kinetic PM‒ligand (bystander) BRET in real time on live HEK 293T cells with untagged AT1R, GLuc‒PM and DN-Dyn; 1 μM TAMRA‒AngII; dissociation after 15 min and washout with 10 μM candesartan against rebinding; one phase (one site) fits.
For experiment [4] the target is unchanged. As to the kind of experiment: FRET or BRET; PM‒ligand (bystander) BRET at equilibrium with GLuc‒PM: live HEK 293T cells with untagged receptor, GLuc‒PM and DN-Dyn; TAMRA‒AngII in solution (1 μM or increasing concentrations), 2 h at room temperature, modified Krebs–Ringer medium pH 7.4; nonspecific signal with 30 μM candesartan; two site binding curves.
The target in experiment [5] is N-terminally GLuc-tagged AT1 angiotensin receptor (GLuc‒AT1R), rat (rat) (UniProt P25095). As to the kind of experiment: FRET or BRET; receptor‒ligand BRET at equilibrium: live adherent HEK 293T cells with N-terminally GLuc- or NanoLuc-tagged AT1R (donor) and DN-Dyn; TAMRA‒AngII in solution (acceptor), 2 h at room temperature, modified Krebs–Ringer medium pH 7.4, read at 27 °C; nonspecific signal with 30 μM candesartan; two site binding curves.

By UniProt entry, the sequences of proteins in these tests, tags left out. Where a name states a change or a piece, a line headed by the entry shows the natural chain unless it says otherwise.
UniProt P35351: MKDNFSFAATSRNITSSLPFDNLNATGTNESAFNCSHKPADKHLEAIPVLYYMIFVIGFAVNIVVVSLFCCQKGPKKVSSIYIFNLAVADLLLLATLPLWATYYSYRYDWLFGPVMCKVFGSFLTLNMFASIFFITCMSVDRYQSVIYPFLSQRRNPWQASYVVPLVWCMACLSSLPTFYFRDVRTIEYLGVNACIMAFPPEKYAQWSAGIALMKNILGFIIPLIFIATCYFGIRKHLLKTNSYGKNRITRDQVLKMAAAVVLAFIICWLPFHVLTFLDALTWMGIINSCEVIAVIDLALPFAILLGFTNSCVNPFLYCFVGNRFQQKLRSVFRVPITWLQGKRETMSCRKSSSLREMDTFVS

Experiment [6] addresses AT2 angiotensin receptor (AT2R), untagged, rat (rat) (UniProt P35351). As to the kind of experiment: FRET or BRET; PM‒ligand (bystander) BRET with GLuc‒PM, equilibrium competition: live HEK 293T cells with unmodified receptor, GLuc‒PM and DN-Dyn; a fixed fluorescent ligand (1 μM TAMRA‒AngII, 300 ng/ml biotinylated EGF on Alexa Fluor 488 streptavidin, or 100 μg/ml Alexa Fluor 488 human transferrin) and increasing unlabeled ligand, 2 h at room temperature.

Experiment [7] has as its target epidermal growth factor receptor (EGFR) (UniProt P00533). The description is as above.
For experiment [8], the target named is AT1 angiotensin receptor (AT1R), untagged, rat (rat) (UniProt P25095). The experiment is described as above.

These results are taken from PMC7950324, “A general method for quantifying ligand binding to unmodified receptors using Gaussia luciferase” (The Journal of Biological Chemistry, 2021).

“red fluorophore–conjugated angiotensin II (TAMRA‒AngII) (peptide)”: the koff worked out at 0.0405 s⁻¹ in experiment [1] and 0.0173 s⁻¹ in experiment [3]. Further, the results for the association rate constant (kon) in experiment [1] and in experiment [3] were 11500 M⁻¹ s⁻¹ and 5270 M⁻¹ s⁻¹, respectively. Moreover, the values for the ΔBRET ratio induced by 1 μM TAMRA–AngII without candesartan (the 100% value) in experiment [2] and in experiment [4] were 0.0062 and 0.0168, respectively. The KD of the high-affinity site (K D Hi) in experiment [4] came out at 287 nM; in experiment [5], 1020 nM. Also, the KD of the low-affinity site (K D Lo) was 18500 nM in experiment [4] and 26400 nM in experiment [5]. In experiment [6], the ΔBRET ratio induced by the fluorescent ligand without unlabeled ligand (the 100% value) came to 0.0119.
As for “biotinylated EGF conjugated to Alexa Fluor 488 streptavidin (ligand)”, in experiment [7], the ΔBRET ratio induced by the fluorescent ligand without unlabeled ligand (the 100% value) is 0.0186.
Regarding angiotensin II (AngII) (peptide), the IC50 of the high-affinity site (IC50 Hi) in experiment [8] is 105 nM.
